Literature values in patent US6136784A, “Amylin agonist pharmaceutical compositions containing insulin” (Amylin Pharmaceuticals, Inc., priority 1998, dated 2000).

Details: cited from earlier work

regular insulin
Time to absorption following subcutaneous injection: 15 to 60 min | Duration of action (lasts for) (subcutaneous injection): 5 to 9 h
